Results reported in US12612431B2, “Cyclic compounds for treating cancer” (University of South Florida, priority 2021, dated 2026).

How the values were obtained:
[1] = tested on: A549 lung tumor xenograft; assay: Antitumor study in A549 lung tumor xenograft mouse model; type: in vivo, mice; details: 40 mg/kg intraperitoneal, every two days for seven times
P-AKT = assay: Western blot of P-AKT in A549 tumor lysates; type: in vivo, mice; details: C225 40 mg/kg
Experimental: Based upon the observed strong inhibition of cell proliferation and migration, the ability to inhibit EGFR cell signaling pathways in vitro, as well as the remarkable stability against proteolytic degradation, the antitumor activity of M-2-5 in a A549 lung tumor xenograft mouse model was evaluated in vivo. […] After another 6 days post injection, mice were sacrificed, and tumors were resected. […] To confirm the expression level of P-EGFR and downstream signaling, the total proteins were extracted from tumor tissues in each group and subjected to immunoblotting of P-EGFR, P-ARK and P-ERK. […] In addition, the phosphorylation level of EGFR in the A549 tumor sections was analyzed by immunohistochemical staining. […] Together with its similar function to monoclonal antibody and its high resistance toward proteolytic degradation, it could be further investigated for promising clinical anti-cancer drug development.
For the detection of phosphorylated EGFR, AKT and ERK in tumors in vivo, a portion of the tumor (80 mg) was immersed in 500 μL extraction buffer (50 mM Tris-HCl (pH 7.4), 150 mM NaCl, 1% NP-40, 0.25% Na-deoxycholate, Protease Inhibitor, SDS 0.1-2%), and tubes were vortexed briefly. […] The supernatant containing soluble proteins was transferred to a new tube and an aliquot was taken for the quantification and the further western blot analysis.

In the case of cetuximab [C225], the “tumor volume versus PBS group” value [1] is reported as “significant reduction in tumor volume” and the “P-AKT level in tumor tissue” value (P-AKT) is reported as “dramatic decrease”.
